According to PubChem BioAssay (Tox21):
Values joined by “and” are separate entries in the source; they are usually repeats but may differ in a detail not shown here. Equal entries are not always repeated. This is a selection; strong and weak results do not stand in their true shares. Results filed as inconclusive are left out. Active and inactive are the calls of the source. Unless noted, calls come from the whole dose curve; as a rule, active = well fitted curve in the direction sought with a large enough effect in the repeat runs; inconclusive = weak or mixed curves; inactive = no such curve, though single readings can be large; an effect the other way counts as inactive or inconclusive.

Sequences of proteins named here, by UniProt entry; tags and fusion partners are left off.
UniProt P03372, whole entry: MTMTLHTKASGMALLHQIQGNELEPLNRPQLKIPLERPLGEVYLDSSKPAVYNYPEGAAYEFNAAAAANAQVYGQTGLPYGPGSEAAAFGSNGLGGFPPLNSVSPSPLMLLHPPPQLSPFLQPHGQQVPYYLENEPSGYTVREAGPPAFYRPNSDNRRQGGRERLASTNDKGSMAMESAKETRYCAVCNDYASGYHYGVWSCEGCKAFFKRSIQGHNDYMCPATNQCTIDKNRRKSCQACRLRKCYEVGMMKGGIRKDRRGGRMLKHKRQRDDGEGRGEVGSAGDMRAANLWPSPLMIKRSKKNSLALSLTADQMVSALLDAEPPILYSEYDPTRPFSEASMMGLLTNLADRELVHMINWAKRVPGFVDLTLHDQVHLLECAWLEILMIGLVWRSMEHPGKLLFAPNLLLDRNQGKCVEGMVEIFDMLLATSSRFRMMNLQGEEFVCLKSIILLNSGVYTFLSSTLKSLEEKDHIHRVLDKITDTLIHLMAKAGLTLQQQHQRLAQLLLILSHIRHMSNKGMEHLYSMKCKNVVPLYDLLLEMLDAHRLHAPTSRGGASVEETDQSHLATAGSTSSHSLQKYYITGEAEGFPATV

How the values were obtained:
[1] = qHTS assay to identify small molecule antagonists of the glucocorticoid receptor (GR) signaling pathway - cell viability counter screen (AID 720693); details: GR-bla HeLa viability, CellTiter-Glo luminescence, 18 h, with 5 nM dexamethasone present; note: nearly all actives have a fitted effect of over 55% in size
[2] = qHTS assay for identifying genotoxic compounds that show differential cytotoxicity against isogenic chicken DT40 cell lines with known DNA damage response pathways - Rev3 mutant cell line (AID 743014); details: chicken DT40 Rev3-/- viability, CellTiter-Glo, 40 h; series mostly up to 68.4 µM; note: nearly all actives have a fitted effect of over 55% in size; note: potency is the fitted concentration of half-maximal effect
[3] = qHTS assay for identifying genotoxic compounds that show differential cytotoxicity against isogenic chicken DT40 cell lines with known DNA damage response pathways - Rad54/Ku70 mutant cell line (AID 743015); details: DT40 Rad54/Ku70 mutant viability, CellTiter-Glo, 40 h; series mostly up to 66.8 µM; note: nearly all actives have a fitted effect of over 60% in size; note: potency is the fitted concentration of half-maximal effect
[4] = qHTS assay to identify small molecule antagonists of the androgen receptor (AR) signaling pathway using the MDA cell line - cell viability counter screen (AID 743041; note: nearly all actives have a fitted effect of over 45% in size); details: MDA-kb2 viability, CellTiter-Fluor, 16 h, cells co-treated with R1881 androgen agonist
Outline: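 qHTS viability read-out; MDA-kb2 AR-luc; R1881-stimulated; 16 h exposure at 37C, 0% CO2; CellTiter-Fluor, 30 min; fluorescence intensity.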

[5] = qHTS assay to identify small molecule antagonists of the thyroid receptor (TR) signaling pathway (AID 743065); details: GH3.TRE-Luc, T3-stimulated luciferase inhibition, 23.5 h; series mostly up to 70.3 µM; note: nearly all actives have a fitted effect of over 55% in size; note: potency is the fitted concentration of half-maximal effect
Outline: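 GH3.TRE-Luc rat pituitary cells carrying two TR response elements driving luciferase were plated for 4 h, given compound plus 1 nM T3 (final), and incubated 23.5 h at 37 C. ONE-Glo luminescence measured reporter inhibition; CellTiter-Fluor fluorescence tracked cytotoxicity.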

[6] = system: thyroid hormone receptor (rat, GH3 cells); assay: qHTS assay to identify small molecule agonists of the thyroid receptor (TR) signaling pathway (AID 743066; calls by dose curve); details: GH3.TRE-Luc cells, TR agonist luciferase, 24 h
[7] = qHTS assay to identify small molecule antagonists of the androgen receptor (AR) signaling pathway - cell viability counter screen (AID 743033; note: nearly all actives have a fitted effect of over 45% in size); details: AR-bla HEK293 viability, CellTiter-Glo luminescence, 16 h
[8] = qHTS assay for identifying genotoxic compounds that show differential cytotoxicity against isogenic chicken DT40 cell lines with known DNA damage response pathways - wild type cell line (AID 743012); details: DT40 wild type chicken cells viability, CellTiter-Glo, 40 h; note: nearly all actives have a fitted effect of over 60% in size
Source text: U.S. Tox21 Program National Center for Advancing Translational Sciences [NCATS] NIH Chemical Genomics Center [NCGC] U.S. Environmental Protection Agency [EPA] National Institutes of Environmental Health Sciences [NIEHS] National Toxicology Program [NTP] U.S. Food and Drug Administration [FDA] Tox21 Assay Overview: DNA repair pathways play a critical role in cellular homeostasis by repairing DNA damage induced by endogenous processes and xenobiotics. Isogenic chicken DT40 cell lines deficient in different DNA repair pathways can be used to identify genotoxic compounds and aid in characterizing the nature of the DNA damage induced. Two DNA repair-deficient cell lines with disrupted genes, Rad54/Ku70 or Rev3, were used to screen the Tox21 10K compound library. Possible genotoxicity was based on the presence of a significant increase in cytotoxicity in one or more of the DNA repair-deficient cell lines compared to that observed in the parental DNA repair-proficient cell line. CellTiter Glo viability assay (Promega, Madison, WI) was used to measure cell viability in these cells after compound treatment. This assay includes the data from the wild type cell line.
Tox21 Assay Protocol Summary: 300 DT40 wild type cells in 5 uL/well were dispensed into white, solid-bottom 1536-well plates using a Multidrop Combi (ThermoFisher Scientific, Waltham, MA) dispenser. After the assay plates were incubated at 37 C/5% CO2 for approximately 0.5 hour, 23 nL of compounds dissolved in DMSO, positive controls or DMSO only was transferred into the assay plate by a pintool work station (Kalypsys, San Diego, CA). The assay plates were incubated at 37 C/5% CO2 for 40 hours. After 5 uL per well of CellTiter-Glo reagent was added into each well of the assay plates, the plates were incubated for 30 min at room temperature and the luminescence intensity of the plates was measured using a ViewLux (PerkinElmer, Shelton, CT) plate reader.

[9] = qHTS assay to identify small molecule antagonists of the thyroid receptor (TR) signaling pathway - cell viability counter screen (AID 743064); details: GH3.TRE-Luc viability, CellTiter-Fluor, 24 h; note: nearly all actives have a fitted effect of over 50% in size
Source text: (§1) National Center for Advancing Translational Sciences [NCATS]
(§2) NIH Chemical Genomics Center [NCGC]
(§3) U.S. Environmental Protection Agency [EPA]
(§4) National Institutes of Environmental Health Sciences [NIEHS]
(§5) National Toxicology Program [NTP]
(§6) U.S. Food and Drug Administration [FDA]
Thyroid receptor (TR), a nuclear hormone receptor, plays an important role in development, proliferation, differentiation, metabolism, brain function, and cardiovascular system. […] To profile the Tox21 10K compound library in TR signaling, a cell-based GH3-TRE-Luc assay (GH3.TRE-Luc cell line, developed by the laboratory of Dr. Albertinka J. Murk, Wageningen University) was used to measure the inhibition of TR. GH3 (rat pituitary tumor) cells stably expressing a TR activity sensor consisting of two TR response elements and a luciferase reporter gene. The cytotoxicity of the Tox21 compound library against the GH3.TRE-Luc cell line was tested in parallel by measuring the cell viability using CellTiter-Fluor assay (Promega, Madison, WI) in the same wells.
(§7) Tox21 Assay Protocol Summary:
GH3.TRE-Luc cells were dispensed at 1500 cells/4 uL/well into 1536-well white solid bottom plates using a Multidrop Combi dispenser (Thermo Fisher Scientific Inc., Waltham, MA). After the assay plates were incubated at 37 C for 4 hours, 23 nL of library compound or DMSO controls was transferred to the assay plates by a pintool station (Kalypsys, San Diego, CA), followed by addition of 1 ul of T3 (1 nM, final concentration in the wells) to stimulate TR transactivation. The assay plates were incubated at 37 C for 23.5 h, and then 1 uL of CellTiter-Fluor reagent (Promega, Madision, WI) of measuring cytotoxicity was added to each well using a Bioraptr Flying Reagent Dispenser (FRD) workstation (Beckman Coulter, Indianapolis, IN, USA). The plates were incubated at 37C and 5% CO2 for additional 30 min, and fluorescence intensity was measured by a ViewLux plate reader (PerkinElmer, Shelton, CT).

[10] = target: Estrogen receptor (Homo sapiens) (UniProt P03372); assay: qHTS assay to identify small molecule antagonists of the estrogen receptor alpha (ER-alpha) signaling pathway (AID 743069; active = well fitted curve in the direction sought with a large enough effect in the signal ratio in the repeat runs, not every such curve was filed as active; the % refers to the signal ratio); details: HEK293 ER-alpha-UAS-bla, beta-lactamase ratio, antagonist mode; at 79.1 µM (top of the series)
Source text: as §1, §2, §3, §4, §5, §6
Estrogen receptor (ER), a nuclear hormone receptor, plays an important role in development, metabolic homeostasis and reproduction. Two subtypes of ER, ER-alpha and ER-beta have similar expression patterns with some uniqueness in both types. Endocrine disrupting chemicals (EDCs) and their interactions with steroid hormone receptors like ER causes disruption of normal endocrine function. To identify the compounds that inhibit ER signaling, an ER-alpha-UAS-bla GripTiteTM cell line (Invitrogen, Carlsbad, CA, USA) containing a beta-lactamase reporter gene under the control of an Upstream Activator Sequence (UAS) stably integrated into HEK293 cells was used to screen the Tox21 10K compound library.
as §7
ER-alpha-bla cells were cultured in assay medium containing 2% charcoal stripped FBS overnight in the culture flasks before the assay was performed. […] Then 1 uL of LiveBLAzerTM B/G FRET substrate was added using a Flying Reagent Dispenser, the plates were incubated at room temperature for 2 hours, and fluorescence intensity was measured by an Envision plate reader (PerkinElmer, Shelton, CT).
% is set by controls: 0 for no effect and ±100 for the full control effect.

CCOP(=S)(Cl)OCC
active: Potency [2] 60.3 µM | Potency [3] 60.3 µM | Potency [5] 47.9 µM
inactive: viability change, negative = cytotoxic ([1]; at 58.5 µM (top of the series)) -19.4% | viability change, negative = cytotoxic ([4]; at 70.3 µM (top of the series)) -2.68% | activation ([6]; at 83.9 µM (top of the series)) -1.72%

O=[N+]([O-])c1ccccc1[N+](=O)[O-]
inactive: activity change, negative = cytotoxicity ([7]; at 58.5 µM (top of the series)) 3% | activity change, negative = cytotoxicity ([7]; at 78.9 µM (top of the series)) -21.3% | activation ([6]; at 83.9 µM (top of the series)) -1.43% | activation ([6]; at 95.2 µM (top of the series)) -7.89%
active: Potency [2] 34.4 µM | Potency [3] 70.3 µM and 61.1 µM

ClCCOP(OCCCl)OCCCl
inactive: viability change, negative = cytotoxic ([1]; at 58.5 µM (top of the series)) -0.135% | viability change, negative = cytotoxic ([1]; at 78.9 µM (top of the series)) -1.77% | activity change, negative = cytotoxicity ([8]; at 68.4 µM (top of the series)) 2.67% | activity change, negative = cytotoxicity ([8]; at 95 µM (top of the series)) -19.6% | Potency [2] | Potency [3] | activity change, negative = cytotoxicity ([7]; at 58.5 µM (top of the series)) 3.88% | activity change, negative = cytotoxicity ([7]; at 78.9 µM (top of the series)) -0.721% | viability change, negative = cytotoxic ([4]; at 70.3 µM (top of the series)) -5.98% | viability change, negative = cytotoxic ([4]; at 95 µM (top of the series)) -1.1% | activity change, negative = cytotoxic ([9]; at 70.3 µM (top of the series)) -9.86% | activity change, negative = cytotoxic ([9]; at 95 µM (top of the series)) -18.3% | Potency [5] | activation ([6]; at 83.9 µM (top of the series)) 7.56% | activation ([6]; at 95.2 µM (top of the series)) -0.811% | activity, negative = inhibition [10] -7.75%

CCOP(=O)(Cl)Cl
inactive: viability change, negative = cytotoxic ([1]; at 58.5 µM (top of the series)) -11% and -0.197% | activity change, negative = cytotoxicity ([8]; at 68.4 µM (top of the series)) -8.72% and 12% | Potency [2] | Potency [3] | activity change, negative = cytotoxicity ([7]; at 58.5 µM (top of the series)) 5.5% and 3.6% | viability change, negative = cytotoxic ([4]; at 70.3 µM (top of the series)) 2.44% and 13.7% | activity change, negative = cytotoxic ([9]; at 70.3 µM (top of the series)) 16.5% and 10.6% | Potency [5] | activation ([6]; at 83.9 µM (top of the series)) 0.858% and 0.39%
